Earlier results as cited in US12384852B2, “Genetically modified NK-92 cells having a safety switch” (ImmunityBio, Inc., priority 2015, dated 2025).

System: NK-92 cells
Settings: NK-92 cells in culture; cited from earlier work

In the case of rIL-2: recombinant interleukin 2, the “dose sufficient to maintain proliferation” value is given as 1 IU/mL.
